Results reported in paper PMC6443668, “Chiral phenoxyacetic acid analogues inhibit colon cancer cell proliferation acting as PPARγ partial agonists” (Scientific Reports, 2019).
Values joined by “and” are separate entries in the source; they are usually repeats but may differ in a detail not shown here. Identical values can stand only once.

Protein sequences, listed by entry. Tags and fused reporters are not part of them. Residues count along the entry.
UniProt P37231, 29-505: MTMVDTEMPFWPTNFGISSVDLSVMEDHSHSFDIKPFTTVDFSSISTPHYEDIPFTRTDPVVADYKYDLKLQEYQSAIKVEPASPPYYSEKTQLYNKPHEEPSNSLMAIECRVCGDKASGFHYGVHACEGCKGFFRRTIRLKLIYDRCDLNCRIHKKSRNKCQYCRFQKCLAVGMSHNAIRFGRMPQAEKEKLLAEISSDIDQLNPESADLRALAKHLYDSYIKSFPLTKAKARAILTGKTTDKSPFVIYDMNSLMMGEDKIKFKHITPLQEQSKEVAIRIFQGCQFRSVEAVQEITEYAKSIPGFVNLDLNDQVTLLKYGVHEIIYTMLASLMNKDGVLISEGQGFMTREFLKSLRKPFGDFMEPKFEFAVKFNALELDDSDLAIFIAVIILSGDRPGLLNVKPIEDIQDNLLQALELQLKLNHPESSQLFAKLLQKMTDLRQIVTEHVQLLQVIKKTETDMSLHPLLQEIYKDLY

Experiments:
HT-29 cells [1] = experiment: Annexin V-FITC / propidium iodide apoptosis flow cytometry in HT-29 cells; assay type: cell-based, human; details: 10 µM, 48 hs
Protocol: To evaluate whether the cell cycle arrest induced by our compounds was accompanied by induction of cell death, we treated HT-29 cells with 10 μM RGZ, (R,S)-3, (S)-3 and (R,S)-7 for 48 hs and then stained with Annexin V-FITC and propidium iodide followed by flow cytometry analysis (Fig. 3A,B). All compounds stimulated apoptosis; the percentage of Annexin^+/propidium^+ cells was higher in (S)-3 than RGZ, (R,S)-3 and (R,S)-7 treated cells. Accordingly, we surveyed the levels of caspase 3, one of the effectors of the process, and found a significant reduction of the precursor and a concomitant increase of the cleaved form with (S)-3 exerting the strongest effect (Fig. 3C).
Figure 3 Effects of RGZ, (R,S)-3, (S)-3 and (R,S)-7 on HT-29 cell apoptosis and caspase-3 activation analysis. (A) HT-29 cells were treated for 48 hs with 10 µM of RGZ, (R,S)-3, (S)-3 and (R,S)-7, respectively, stained by Annexin V-propidium iodide and analyzed by flow cytometry. (B) Early (Ann+/PI−) and late (Ann+/PI+) apoptotic cell populations were evaluated and reported in the graphic representation. […] (C) Total protein extracts from proliferating HT-29 cells, treated or not with 10 µM RGZ, (R,S)-3, (S)-3 and (R,S)-7, respectively, for 48 hs were analyzed by Western blotting with an anti-caspase 3 antibody. […]

p21^waf1/cip1 [2] = experiment: Western blotting of p21waf1/cip1 in HT-29 cells; assay type: cell-based, human; details: 10 µM, 48 hs
Protocol: Figure 1 Cell cycle analysis of HT-29 cells treated with increasing amounts of RGZ, (R,S)-3, (S)-3 or (R,S)-7 and p21^waf1/cip1 expression evaluation by Western blotting. (A) Flow cytometric assay carried out on HT-29 cells treated or not with the indicated compounds at different concentrations ranging from 1 to 25 µM for 48 hs. HT-29 cells exposed or not to these compounds were harvested, permeabilized and stained with propidium iodide and analyzed by FACS. Data are means ± SD of two independent experiments. *p ≤ 0.05, **p ≤ 0.01 compared to the control. (B) Proliferating HT-29 cells were treated or not for 48 hs with 10 µM of the indicated compounds. Protein extracts were prepared and assessed for p21^waf1/cip1 expression in Western blotting analysis. β-Actin was used for protein load normalization. The bar graphs are the mean ± SD of three independent experiments. **p ≤ 0.01 compared to the control.
To better characterize the growth inhibition elicited by (R,S)-3, (S)-3 and (R,S)-7, we examined changes in the expression of proteins involved in cell cycle control (Figs 1B and 2A). To this goal, protein extracts from proliferating HT-29 cells, treated for 48 hs with the vehicle alone (DMSO), or 10 μM RGZ, (R,S)-3, (S)-3 or (R,S)-7, respectively, were analyzed by Western blotting for p21^waf1/cip1 expression. […]

p21^waf1/cip1 [3] = experiment: Western blotting of p21waf1/cip1 in parental RKO cells (no endogenous PPARG); details: 10 µM, 48 hs
HT-29 cells [4] = experiment: Viability / proliferation assay in HT-29 cells (cell counting)
cyclin D1 = experiment: Western blotting of cyclin D1 in HT-29 cells; details: 10 µM, 48 hs
HT-29 cells [5] = experiment: Cell cycle analysis by flow cytometry (propidium iodide) in HT-29 cells; details: 1 to 25 µM, 48 hs, FACS
β-catenin = experiment: Western blotting of β-catenin in HT-29 cells; details: 10 µM, 48 hs
β-catenin/TCF pathway = experiment: Top-FLASH reporter luciferase assay in LiCl-induced HEK-293 cells; assay type: cell-based; details: HEK-293, Top-FLASH, 20 mM LiCl plus 1 µM compound, 24 hs, relative to LiCl alone
Protocol: Figure 2 Effects of RGZ, (R,S)-3, (S)-3 and (R,S)-7 on the expression of different protein markers. Proliferating HT-29 cells were treated for 48 hs with 10 µM of the indicated compounds. Specific antibodies against cyclin D1 (A), c-Myc (B), β-catenin (C) and PPARγ (D) respectively, were used in Western blotting analysis. An anti-β-actin antibody was used as a control for protein loading. The graphs of (A) and (B) represent the means ± SD of three independent experiments. **p ≤ 0.01, ***p ≤ 0.005 compared to the control. The bar graphs of (C,D) are the means ± SD of three independent experiments. *p ≤ 0.05 compared to the control. (E) Top-FLASH luciferase assay performed in HEK-293 cells transiently transfected with the Top-FLASH reporter plasmid and exposed to 20 mM LiCl alone or in combination with 1 µM RGZ, (R,S)-3, (S)-3, (R,S)-7 or the vehicle alone (DMSO) for 24 hs is shown. Luciferase activity is reported as fold induction after normalization to β-galactosidase activity used as control of transfection efficiency. […]
The Top-FLASH reporter plasmid containing three copies of TCF binding sites was transiently transfected into HEK293 cells with Lipofectamine 2000 (Invitrogen, Carlsbad, CA, USA) in 24-well plates. […] Luciferase activity was measured after 24 h of compounds treatment and normalized to β-galactosidase. […]

p21^waf1/cip1 [6] = experiment: Western blotting of p21waf1/cip1 in RKO cells stably transfected with PPARG1; details: RKO clone expressing exogenous PPARγ1, 10 µM, 48 hs
c-Myc = experiment: Western blotting of c-Myc in HT-29 cells; details: 10 µM, 48 hs
PPARγ1 = PPARγ1 (Homo sapiens, UniProt P37231); experiment: PPRE-Luciferase reporter transactivation in HEK293 cells expressing PPARγ1; assay type: cell-based

With `O=C(O)C(CCCc1ccc(Cl)cc1)Oc1ccc(Cl)cc1` (racemic) the Apoptosis induction (HT-29 cells [1]) was “stimulated apoptosis”, the p21waf1/cip1 protein expression (p21^waf1/cip1 [2]) was “slight” and the p21waf1/cip1 expression (p21^waf1/cip1 [3]) was “no p21^waf1/cip1 variations”. For the same compound, the IC50 (HT-29 cells [4]; read-out: Proliferation IC50, concentration range 1 to 25 µM) was 7.3 µM, the Residual viability (HT-29 cells [4]; remaining surviving cells) was 47 ± 2.3% and the “cyclin D1 protein level” value (cyclin D1) was “reduction”. The Cell cycle changes (HT-29 cells [5]) was “dosage-dependent increase of the G0/G1 cell population”, the β-catenin protein level (β-catenin) was “reduction” and the “Luciferase activity remaining on co-treatment with LiCl” value (β-catenin/TCF pathway) was 80%. The p21waf1/cip1 expression (p21^waf1/cip1 [6]) was “induced accumulation”, the c-Myc protein level (c-Myc) was “reduction” and the Efficacy (PPARγ1; PPARγ transactivation with respect to the full agonist RGZ taken as 100%) was 65% and 65 ± 2.4%. It also gave an EC50 (PPARγ1; PPARγ transactivation, PPRE-Luc reporter, HEK293 expressing PPARγ1, 24 hs treatment) of 0.35 µM.
